# Results: publication PMC7320145, “Substrate Channeling via a Transient Protein-Protein Complex: The case of D-Glyceraldehyde-3-Phosphate Dehydrogenase and L-Lactate Dehydrogenase” (Scientific Reports, 2020)
# Assays:
# [1] = biological target: baker's yeast D-glyceraldehyde-3-phosphate dehydrogenase (baker's yeast) (UniProt P00359)
# [2] = biological target: baker's yeast D-glyceraldehyde-3-phosphate dehydrogenase (baker's yeast) (UniProt P00359); remark: listed apart in the source
# [3] = biological target: rabbit muscle D-glyceraldehyde-3-phosphate dehydrogenase (rabbit) (UniProt P46406)
# [4] = biological target: rabbit muscle D-glyceraldehyde-3-phosphate dehydrogenase (rabbit) (UniProt P46406); remark: listed apart in the source
substance,measurement,setting,value
rabbit muscle L-lactate dehydrogenase (from UniProt P13491 2-332) (enzyme),"ratio between measured rmLDH activity and the calculated free-diffusion activity; 40 μM NADH, byGAPDH 240 to 480 μM of NADH binding sites; ratio rises from 3.5 to 5.8 fold",[1],5.8 fold
same,"ratio between measured rmLDH activity and the calculated free-diffusion activity; byGAPDH fixed at 480 μM NADH binding sites, NADH decreased from 40 to 10 μM; ratio rises from 4.85 to 6.2 fold",[1],6.2 fold
same,apparent KM of rmLDH with byGAPDH-NADH complex as substrate (630 μM pyruvate),[2],78 µM
same,apparent Vmax of rmLDH with byGAPDH-NADH complex as substrate (630 μM pyruvate) (units per milligram),[2],241
same,apparent KM of rmLDH with rmGAPDH-NADH complex as substrate (630 μM pyruvate),[3],35 µM
same,apparent Vmax of rmLDH with rmGAPDH-NADH complex as substrate (630 μM pyruvate) (units per milligram),[3],8.2
same,"ratio between measured rmLDH activity and the calculated free-diffusion activity; 40 μM NADH, rmGAPDH 100 to 240 μM of NADH binding sites; ratio rises from 1.2 to 1.85 fold",[4],1.85 fold
same,"ratio between measured rmLDH activity and the calculated free-diffusion activity; rmGAPDH fixed at 200 μM NADH binding sites, NADH decreased from 40 to 10 μM; ratio rises from 1.65 to 2.25 fold",[4],2.25 fold
